Measured values: publication PMC10051910 (Marine Drugs, 2023)

Columns and labels:
Format in all cases: cell-based, Human
[1] = tested on: COMI cells; assay: GI50 on COMI cells under normoxic or hypoxic conditions; conditions: Normoxia (21% oxygen), 48 h, mean ± SEM, n = 6
[2] = tested on: G166 glioblastoma stem cell line; assay: GI50 growth inhibition, viable cell count (Hoechst 33342/PI), 48 h
[3] = tested on: G144 glioblastoma stem cell line; assay: as above
[4] = tested on: GB8 glioblastoma stem cell line; assay: as above
[5] = tested on: GB6 glioblastoma stem cell line; assay: as above
[6] = tested on: COMI glioblastoma stem cell line; assay: as above
[7] = tested on: GSC#1 glioblastoma stem cell line; assay: as above
[8] = tested on: VIPI glioblastoma stem cell line; assay: as above
[9] = tested on: GB7 glioblastoma stem cell line; assay: as above
[10] = tested on: GSC#151 glioblastoma stem cell line; assay: as above
[11] = tested on: panel of nine patient-derived GSC lines; assay: GI50 growth inhibition over the GSC line panel; conditions: range over nine GSC lines
[12] = tested on: Hs68 foreskin fibroblast cell line; assay: GI50 growth inhibition on non-tumor cell line, 48 h
[13] = tested on: hTERT-HPNE pancreatic duct cell line; assay: as above
[14] = tested on: MCF10A breast epithelium cell line; assay: as above
[15] = tested on: ARPE-19 retinal pigmented epithelium cell line; assay: as above

CCC1[As]2O[As]3O[As]1O[As](O2)C3CC (stereo not drawn)
GI50 [1]: 0.05 µM
Ratio GI50 ATO / GI50 alkyl polyarsenical [2]: 12.7
Ratio GI50 ATO / GI50 alkyl polyarsenical [3]: 23.9
Ratio GI50 ATO / GI50 alkyl polyarsenical [4]: 11.1
Ratio GI50 ATO / GI50 alkyl polyarsenical [5]: 8.7
Ratio GI50 ATO / GI50 alkyl polyarsenical [6]: 18.6
Ratio GI50 ATO / GI50 alkyl polyarsenical [7]: 11.1
Ratio GI50 ATO / GI50 alkyl polyarsenical [8]: 19.9
Ratio GI50 ATO / GI50 alkyl polyarsenical [9]: 27.0
Ratio GI50 ATO / GI50 alkyl polyarsenical [10]: 33.3
fold greater potency than ATO on the GSC line panel [11]: 8.7–33.3 fold
Selectivity Index (SI) ([12]; GI50 Hs68 / GI50 COMI): 124
Selectivity Index (SI) ([12]; GI50 Hs68 / GI50 G144): 68.9
Selectivity Index (SI) ([12]; GI50 Hs68 / GI50 G166): 20
Selectivity Index (SI) ([12]; GI50 Hs68 / GI50 GB6): 18.2
Selectivity Index (SI) ([12]; GI50 Hs68 / GI50 GB7): 124
Selectivity Index (SI) ([12]; GI50 Hs68 / GI50 GB8): 18.8
Selectivity Index (SI) ([12]; GI50 Hs68 / GI50 GSC#1): 32.6
Selectivity Index (SI) ([12]; GI50 Hs68 / GI50 GSC#151): 51.7
Selectivity Index (SI) ([12]; GI50 Hs68 / GI50 VIPI): 28.2
Selectivity index (SI) value range ([12]; GI50 Hs68 / GI50 of GSC lines, range over nine GSC lines): 18.2 to 124
Selectivity Index (SI) ([13]; GI50 hTERT-HPNE / GI50 COMI): 29.6
Selectivity Index (SI) ([13]; GI50 hTERT-HPNE / GI50 G144): 16.4
Selectivity Index (SI) ([13]; GI50 hTERT-HPNE / GI50 G166): 4.8
Selectivity Index (SI) ([13]; GI50 hTERT-HPNE / GI50 GB6): 4.4
Selectivity Index (SI) ([13]; GI50 hTERT-HPNE / GI50 GB7): 29.6
Selectivity Index (SI) ([13]; GI50 hTERT-HPNE / GI50 GB8): 4.5
Selectivity Index (SI) ([13]; GI50 hTERT-HPNE / GI50 GSC#1): 7.8
Selectivity Index (SI) ([13]; GI50 hTERT-HPNE / GI50 GSC#151): 12.3
Selectivity Index (SI) ([13]; GI50 hTERT-HPNE / GI50 VIPI): 6.7
Selectivity index (SI) value range ([13]; GI50 hTERT-HPNE / GI50 of GSC lines, range over nine GSC lines): 4.4 to 29.6
Selectivity Index (SI) ([14]; GI50 MCF10A / GI50 COMI): 17.8
Selectivity Index (SI) ([14]; GI50 MCF10A / GI50 G144): 9.9
Selectivity Index (SI) ([14]; GI50 MCF10A / GI50 G166): 2.9
Selectivity Index (SI) ([14]; GI50 MCF10A / GI50 GB6): 2.6
Selectivity Index (SI) ([14]; GI50 MCF10A / GI50 GB7): 17.8
Selectivity Index (SI) ([14]; GI50 MCF10A / GI50 GB8): 2.7
Selectivity Index (SI) ([14]; GI50 MCF10A / GI50 GSC#1): 4.7
Selectivity Index (SI) ([14]; GI50 MCF10A / GI50 GSC#151): 7.4
Selectivity Index (SI) ([14]; GI50 MCF10A / GI50 VIPI): 4
Selectivity index (SI) value range ([14]; GI50 MCF10A / GI50 of GSC lines, range over nine GSC lines): 2.6 to 17.8
Selectivity Index (SI) ([15]; GI50 ARPE-19 / GI50 COMI): 17.2
Selectivity Index (SI) ([15]; GI50 ARPE-19 / GI50 G144): 9.6
Selectivity Index (SI) ([15]; GI50 ARPE-19 / GI50 G166): 2.8
Selectivity Index (SI) ([15]; GI50 ARPE-19 / GI50 GB6): 2.5
Selectivity Index (SI) ([15]; GI50 ARPE-19 / GI50 GB7): 17.2
Selectivity Index (SI) ([15]; GI50 ARPE-19 / GI50 GB8): 2.6
Selectivity Index (SI) ([15]; GI50 ARPE-19 / GI50 GSC#1): 4.5
Selectivity Index (SI) ([15]; GI50 ARPE-19 / GI50 GSC#151): 7.2
Selectivity Index (SI) ([15]; GI50 ARPE-19 / GI50 VIPI): 3.9
Selectivity index (SI) value range ([15]; GI50 ARPE-19 / GI50 of GSC lines, range over nine GSC lines): 2.5 to 17.2
